Only a part is listed here, and it is no random draw. Some of these compounds have results that are not shown, active ones among them. Activity calls are given as the source filed them.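 Rule for the calls: active = activation above the mean across all tested compounds plus 3 SD, cutoff set per campaign (cut at about 5.5% in these data); inactive = the rest.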
Assay: Hsp70 promoter-driven reporter induction – cell-based, HeLa, Hsp70 promoter luciferase, luminescence, 10 µM, primary screen (AID 1203);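 note: 100% = MG132 at 30 µM as the positive control and 0% = DMSO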
Details: at 10 µM, active compounds read high, scaled: vehicle 0, proteasome-inhibitor control 100%

| SMILES | activation |
| --- | --- |
| O=C(OC1CN2CCC1CC2)C(CO)(c1ccccc1)c1ccccc1 (centres undefined) | inactive: -0.05% |
| CN(C)c1cccc(C(=O)NCC2(N(C)C)CCCCC2)c1 | inactive: 0.05% |
| COc1cccc(C(=O)NCC2(N3CCCCC3)CCCCC2)c1 | inactive: -0.14% |
| CN(C)C1CCCC1OC(=O)C(O)(c1ccccc1)c1ccccc1 (centres undefined) | inactive: 0.29% |
| Cc1ccccc1C(=O)NCC1(N2CCCCC2)CCCCC1 | inactive: -0.35% |
| CCN1CCCC(OC(=O)C2(O)c3ccccc3C=Cc3ccccc32)C1 (centres undefined) | inactive: -0.28% |
| C=CCN1CCN(CCOC(=O)C(O)(c2ccccc2)c2ccccc2)CC1 | inactive: -0.29% |
| O=C(NCC1(N2CCCCC2)CCCCC1)c1cc([N+](=O)[O-])ccc1Cl | inactive: -0.3% |
| CC(C)N1C(=O)CC2(CCN(CCOC(=O)C(O)(c3ccccc3)c3ccccc3)CC2)C1=O | inactive: -0.17% |

Source: PubChem BioAssay AID1203 (The Scripps Research Institute Molecular Screening Center, 2008)
